Data reported in publication PMC8906351 (Pharmaceutical research, 2021).

System: [^14C]phenytoin efflux across the rat BBB
Assay: BEI inhibition study: pre-administration of compounds into rat Par2 region
Format: in vivo
Conditions: 30 min

Substance: dehydroepiandrosterone sulfate [DHEAS]
- effect of pre-administration on [14C]phenytoin BEI (in words) (20 mM desipramine, probenecid, MK-571, 5 mM quinidine, 4 mM verapamil, 500 μM prazosin, 10 mM methotrexate, DHEAS, PSC833): not significantly altered
- % of Control (compound 10 mM pre-administered): 121 ± 18%
- BEI (%) (compound 10 mM pre-administered, control 64.1 ± 12.9): 77.9 ± 11.3%
